Among the data in publication PMC10108392, “Rimonabant-Based Compounds Bearing Hydrophobic Amino Acid Derivatives as Cannabinoid Receptor Subtype 1 Ligands” (ACS Medicinal Chemistry Letters, 2023) are Emax values, retold here.

Chains of the proteins cited; added tags and fusions are not shown.
UniProt P20272, whole entry: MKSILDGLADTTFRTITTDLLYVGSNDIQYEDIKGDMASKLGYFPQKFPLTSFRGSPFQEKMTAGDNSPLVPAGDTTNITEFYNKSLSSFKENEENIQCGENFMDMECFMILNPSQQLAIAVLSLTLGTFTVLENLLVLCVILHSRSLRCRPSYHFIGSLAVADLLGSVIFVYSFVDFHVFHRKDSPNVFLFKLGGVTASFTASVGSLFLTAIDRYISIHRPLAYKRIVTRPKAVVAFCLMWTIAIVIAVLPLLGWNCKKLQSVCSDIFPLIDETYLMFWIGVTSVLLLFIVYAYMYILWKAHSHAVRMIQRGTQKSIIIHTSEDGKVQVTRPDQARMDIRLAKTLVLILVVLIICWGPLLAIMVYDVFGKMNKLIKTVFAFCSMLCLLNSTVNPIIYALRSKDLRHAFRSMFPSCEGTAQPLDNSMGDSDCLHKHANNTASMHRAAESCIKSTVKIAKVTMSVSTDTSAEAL

The experiment has as its target T1, CB1R (Rattus norvegicus, UniProt P20272).
T1 construct: Crude membrane fractions were prepared from the brain; from tissue; host or cells: Wistar rat whole brain, crude membrane fraction
The experiment can be described thus: Ligand stimulated [35S]GTPγS binding assay in rat brain membranes. It is filed as biochemical. As to conditions: read-out: [35S]GTPγS stimulation Emax. The protocol: Our novel chemical compounds were tested in vitro for their binding ability, efficacy, and potency on CB1R in rat brain membrane homogenate (Table 2 and SI, Figure S1). CB1Rs are the most abundant G-protein coupled receptors in the rodent and mammalian brain; therefore, this is an appropriate model to characterize our ligands in a more physiological system.
In Vitro Biological Assays
Preparation of Brain Membrane Homogenates
Wistar rats were locally bred and handled according to the EU Directive 2010/63/EU and to the Regulations on Animal Protection (40/2013. (II. 14.) Korm. r.) of Hungary. Crude membrane fractions were prepared from the brain. Brains were quickly removed from the euthanized rats and directly put in an ice-cold 50 mM Tris-HCl buffer (pH 7.4). The collected tissue was then homogenized in 30 volumes (v/w) of an ice-cold buffer with a Braun Teflon-glass homogenizer at the highest rpm. The homogenate was centrifuged at 20,000 × g for 25 min, and the resulting pellet was suspended in the same volume of a cold buffer followed by incubation at 37 °C for 30 min to remove endogenous ligands. Centrifugation was then repeated. The final pellets were taken up in five volumes of a 50 mM Tris-HCl (pH 7.4) buffer containing 0.32 M sucrose and stored at -80 °C. Prior to the experiment, aliquots were thawed and centrifuged at 20,000 ×g for 25 min and then they were resuspended in 50 mM Tris-HCl (pH 7.4), homogenized with a Douncer, followed by the determination of the protein concentration by the method of Bradford. The membrane suspensions were immediately used either in radioligand binding experiments or in [35S]GTPγS functional assays. […]
was terminated by diluting the samples with an ice-cold wash buffer (50 mM of Tris-HCl, 2.5 mM of EGTA, 5 mM of MgCl2, 0.5% fatty acid free BSA, pH 7.4), followed by repeated washing and rapid filtration through Whatman GF/B glass fiber filters (Whatman Ltd., Maidstone, UK) pre-soaked with 0.1% polyethyleneimine (30 min before the filtration). Filtration was performed with a 24-well Brandel Cell Harvester (Gaithersburg, MD, USA). Filters were air-dried and immersed into Ultima Gold MV scintillation cocktail, and then radioactivity was measured with a TRI-CARB 2100TR liquid scintillation analyzer (Packard, Perkin Elmer, Waltham, MA, USA).
Ligand Stimulated [35S]GTPγS Binding Assay
Rat brain membranes (30 µg protein/tube), prepared as described above, were incubated with 0.05 nM of […]
mM of NaCl, 3 mM of MgCl2 and 1 mM of EGTA in a 50 mM Tris-HCl buffer (pH 7.4) for 60 min at 30 °C. Basal [35S]GTPγS binding was measured in the absence of ligands and set as 100%. Nonspecific […]
binding was determined by the addition of 10 µM unlabelled GTPγS and subtracted from total binding.
Incubation, filtration and radioactivity measurements of the samples were carried out as described above. […]
All
A general note: GTPγS resists hydrolysis and so accumulates on activated G proteins.

What is called Emax is the size of the effect at its maximum, as opposed to the concentration needed. Take `COC(=O)[C@@H](NC(=O)c1nn(-c2ccccc2)c(-n2cccc2)c1C)C(C)C` [Compound 27, RS2709-Val-OCH3]: the Emax came to 52 ± 7%.

Take `Cc1c(C(=O)N[C@H](C(N)=O)C(C)C)nn(-c2ccc(Cl)cc2)c1-n1cccc1` [Compound 13, RS2691-Val-NH2]: the Emax stood at 97 ± 6%.

`COC(=O)[C@@H](NC(=O)c1cc(-n2cccc2)n(-c2ccccc2)n1)C(C)C` [Compound 25, RS2708-Val-OCH3]: the Emax was 54 ± 5%.

Consider `CC(C)(C)[C@H](NC(=O)c1cc(-n2cccc2)n(-c2ccccc2)n1)C(=O)O` [Compound 6, RS2708-tLeu-OH], for which the Emax came out at 80 ± 7.3%.

Regarding `Cc1c(C(=O)N[C@H](C(=O)O)C(C)(C)C)nn(-c2ccccc2)c1-n1cccc1` [Compound 8, RS2709-tLeu-OH], the Emax is 74 ± 14%.

On to `CC(C)(C)[C@H](NC(=O)c1cc(-n2cccc2)n(-c2ccc(Cl)cc2)n1)C(N)=O` [Compound 12, RS2689-tLeu-NH2], for which the Emax is 101 ± 1.8%.

With `Cc1c(C(=O)N[C@H](C(N)=O)C(C)C)nn(-c2ccccc2)c1-n1cccc1` [Compound 17, RS2709-Val-NH2], the Emax turned out to be 46 ± 12%.

`Cc1c(C(=O)N[C@H](C(=O)O)C(C)C)nn(-c2ccc(Cl)cc2Cl)c1-n1cccc1Cl` [Compound 9, RS3516-Val-OH]: the Emax is 50 ± 15%.

As to `CC(C)[C@H](NC(=O)c1cc(-n2cccc2)n(-c2ccccc2)n1)C(N)=O` [Compound 15, RS2708-Val-NH2], the Emax stood at 53 ± 3.8%.

Take `Cc1c(C(=O)N[C@H](C(=O)O)C(C)(C)C)nn(-c2ccc(Cl)cc2)c1-n1cccc1` [Compound 4, RS2691-tLeu-OH]: the Emax came out at 66 ± 10%.

On to `Cc1c(C(=O)N[C@H](C(=O)O)C(C)C)nn(-c2ccc(Cl)cc2)c1-n1cccc1` [Compound 3, RS2691-Val-OH], for which the Emax was 51 ± 5.6%.

On to `CNC(=O)[C@@H](NC(=O)c1cc(-n2cccc2)n(-c2ccc(Cl)cc2)n1)C(C)C` [Compound 31, RS2689-Val-NHCH3], for which the Emax is 55 ± 5%.

Consider `Cc1c(C(=O)N[C@H](C(=O)O)C(C)C)nn(-c2ccccc2)c1-n1cccc1` [Compound 7, RS2709-Val-OH], for which the Emax is 82 ± 18%.

For `CNC(=O)[C@@H](NC(=O)c1nn(-c2ccc(Cl)cc2Cl)c(-n2cccc2Cl)c1C)C(C)(C)C` [Compound 40, RS3516-tLeu-NHCH3], the Emax was found to be 77 ± 4%.

For the molecule `Cc1c(C(=O)N[C@H](C(=O)O)C(C)(C)C)nn(-c2ccc(Cl)cc2Cl)c1-n1cccc1Cl` [Compound 10, RS3516-tLeu-OH], the Emax is 49 ± 10%.

As for `CC(C)(C)[C@H](NC(=O)c1cc(-n2cccc2)n(-c2ccccc2)n1)C(N)=O` [Compound 16, RS2708-tLeu-NH2], the Emax was 76 ± 4%.

Turning to `COC(=O)[C@@H](NC(=O)c1nn(-c2ccc(Cl)cc2Cl)c(-n2cccc2Cl)c1C)C(C)(C)C` [Compound 30, RS3516-tLeu-OCH3], the Emax amounted to 48 ± 8%.

Regarding `CNC(=O)[C@@H](NC(=O)c1nn(-c2ccc(Cl)cc2)c(-n2cccc2)c1C)C(C)C` [Compound 33, RS2691-Val-NHCH3], the Emax was 94 ± 2%.

For `CC(C)[C@H](NC(=O)c1cc(-n2cccc2)n(-c2ccc(Cl)cc2)n1)C(N)=O` [Compound 11, RS2689-Val-NH2], the Emax came out at 68 ± 9%.

Consider `CNC(=O)[C@@H](NC(=O)c1nn(-c2ccc(Cl)cc2Cl)c(-n2cccc2Cl)c1C)C(C)C` [Compound 39, RS3516-Val-NHCH3], for which the Emax came to 47 ± 8%.

Turning to `CC(C)[C@H](NC(=O)c1cc(-n2cccc2)n(-c2ccccc2)n1)C(=O)O` [Compound 5, RS2708-Val-OH], the maximal response (Emax) came to 79 ± 4.9%.

Take `CC(C)[C@H](NC(=O)c1cc(-n2cccc2)n(-c2ccc(Cl)cc2)n1)C(=O)O` [Compound 1, RS2689-Val-OH]: the Emax worked out at 63 ± 13%.

With `CNC(=O)[C@@H](NC(=O)c1cc(-n2cccc2)n(-c2ccccc2)n1)C(C)C` [Compound 35, RS2708-Val-NHCH3], the Emax is 76 ± 9%.

Take `COC(=O)[C@@H](NC(=O)c1nn(-c2ccc(Cl)cc2)c(-n2cccc2)c1C)C(C)C` [Compound 23, RS2691-Val-OCH3]: the Emax came out at 45 ± 13%.

For `CNC(=O)[C@@H](NC(=O)c1cc(-n2cccc2)n(-c2ccccc2)n1)C(C)(C)C` [Compound 36, RS2708-tLeu-NHCH3], the Emax came out at 98 ± 1.6%.

Regarding `CC(C)(C)[C@H](NC(=O)c1cc(-n2cccc2)n(-c2ccc(Cl)cc2)n1)C(=O)O` [Compound 2, RS2689-tLeu-OH], the Emax stood at 74 ± 2.5%.
